In patent publication US20250312336A1, “Compositions And Methods For Treating Cancer With Calcium Channel Inhibitors” (Institute for Cancer Research d/b/a The Research Institute …, priority 2024, published 2025):

Tested on: intratumoral and splenic immune cells
Test: Immunoprofiling of tumor and splenic tissues of KPC3 tumor-bearing mice
Type: in vivo, mouse
Settings: tumor-bearing mice treated 3 weeks; for Frequencies of immune cells in the spleen: clofazimine 50 mg/kg
Method: Orthotopically implanted syngeneic KPC3 tumor tissues were harvested and digested with 1 mg/mL Collagenase D (Roche, Switzerland) plus with 100 μg/mL DNase I (Roche) in RPMI medium for 45 min with continuous agitation at 37° C. The digestion mixture was passed through a 100 μm cell strainer to prepare single cell suspension and washed with PBS supplemented with 2 mM EDTA and 1% FBS. Single cells were stained with antibodies purchased from BioLegend (San Diego, CA) diluted at 1:200 for staining: CD45-BV785 (cat #103149), CD3-APC (cat #100236), CD8-APC/Cy7 (cat #100714), TIM3-BV421 (cat #134019), CD69-FITC (cat #104506), PD-1-BV605 (#135220), CD11C-PE/Cy7 (cat #117318), MHCII-APC (cat #107615), CD11b-Percp/Cy5.5 (cat #101228), F4/80-BV421 (#123132), Ly6C-BV605 (cat #128036), Ly6G-APC/Cy7 (cat #127624), NK1.1-FITC (cat #156508), CD3-APC/Cy7 (cat #100222), CD8-PE/Cy7 (cat #100722), IFN-γ-APC (cat #505810), Granzyme B-Percp/Cy5.5 (cat #372212), CD3-BV421 (cat #100228), CD4-PE/Cy7 (cat #116016), CD25-APC/Cy7 (cat #, 101908), Foxp3-AF647 in permeabilized cells (cat #,320014). Cholesterol abundance in cell membranes was determined with Cholesterol Detection Assay Kit (Cayman, cat #10009779). Dissociated cells were fixed with fixative solution for 10 minutes, washed and labeled with Filipin III as per the manufacturer's instructions. Labeling with Filipin III was done by incubating in the dark for 30 minutes. After two washes for 5 minutes each, labeling was analyzed by flow cytometry (excitation: 340-380, emission: 385-470). The IFN-γ, Granzyme B and Foxp3 were detected using Foxp3/Transcription Factor Staining Buffer (00-5523-00, Thermo Fisher Scientific). Cells were stained for cell surface markers at 4° C. for 30 min followed by fixation and permeabilization buffer for 30 mins and two washes with permeabilization buffer and incubation with the indicated antibodies for 30 mins, washed with PBS twice followed by flow cytometry analysis.

## CC(C)/N=c1\cc2n(-c3ccc(Cl)cc3)c3ccccc3nc-2cc1Nc1ccc(Cl)cc1 [clofazimine]
  Cholesterol levels (Filipin III) in intratumoral CTLs: decreased cholesterol levels
  Cholesterol levels (Filipin III) in splenic CD8+ T cells: failed to do so
  Exhaustion markers PD-1 and TIM3 in intratumoral CTLs: decreased expression
  Intratumoral CD8+ T cells: increased numbers
  Intratumoral CD11b+F4/80+ macrophages, LY6G+ granulocytic or LY6C+ monocytic MDSCs, NK cells: did not change the numbers
  Intratumoral regulatory T cells (Tregs): significantly fewer regulatory T cells
  Intratumoral type I conventional dendritic cells: increased numbers
  T cell activation markers CD69, IFN-γ, Granzyme B in intratumoral CTLs: increased levels of expression
  Frequencies of immune cells in the spleen: No clofazimine-induced changes
Listed as Clofazimine
  Frequencies of immune cells in the spleen: has no effect on preponderance of immune subsets
  Intratumoral CD11b+F4/80+ macrophages, LY6G+ granulocytic or LY6C+ monocytic MDSCs, NK cells: does not change the percentage
  Markers of T cell effector function or exhaustion (CD69, PD-1, TIM3, interferon-γ) in splenic CD8+ CTLs: has no effect on expression
